In patent US20160331662A1, “Compositions that Inhibit and Prevent the Formation of Dental Caries and Methods of Using the Same” (priority 2014, published 2016) one finds Ka and Kd data, which are given here for two substances.

Amino acid sequences for entries named in this document (tags omitted). Residues count along the entry.
UniProt Q9UGM3, 102-202: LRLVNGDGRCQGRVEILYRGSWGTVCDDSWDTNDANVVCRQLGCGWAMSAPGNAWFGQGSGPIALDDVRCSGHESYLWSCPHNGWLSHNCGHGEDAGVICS
UniProt Q9UGM3, 102-463 limits assumed: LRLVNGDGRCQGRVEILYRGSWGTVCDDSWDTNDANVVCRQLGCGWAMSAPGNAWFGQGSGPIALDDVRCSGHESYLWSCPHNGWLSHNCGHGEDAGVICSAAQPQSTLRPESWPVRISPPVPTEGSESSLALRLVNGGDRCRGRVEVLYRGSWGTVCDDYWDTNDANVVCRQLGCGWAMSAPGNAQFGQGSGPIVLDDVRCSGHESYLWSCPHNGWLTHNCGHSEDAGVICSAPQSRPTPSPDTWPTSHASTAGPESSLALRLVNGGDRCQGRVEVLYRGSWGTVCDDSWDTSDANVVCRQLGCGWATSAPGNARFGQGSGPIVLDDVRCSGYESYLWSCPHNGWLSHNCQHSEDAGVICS

The target of test [1] is iSRCR1 (Deglycosylated) (human) (UniProt Q9UGM3). Put plainly: SPR, analyte over ligand deglycosylated on the CM5 chip, 1:1 Langmuir model. Background: In SPR one partner is held on a chip, and binding of the other changes the refractive index at the surface.
The target of a further test is iSRCR1 (human) (UniProt Q9UGM3). Put plainly: SPR, analyte over ligand immobilized on CM5 chip, 1:1 Langmuir model; SPR with calcium; immobilized iSRCR1, not deglycosylated.
Test [2] concerns the target iSRCR123 (Deglycosylated) (human) (UniProt Q9UGM3). Put plainly: SPR, analyte over ligand deglycosylated on the CM5 chip, 1:1 Langmuir model.
The target of the next test is iSRCR123 (human) (UniProt Q9UGM3). Kind of test: SPR, analyte over ligand immobilized on CM5 chip, 1:1 Langmuir model.

A word on the Kd: it is the free concentration of one partner at which half of the binding sites on the other are occupied at equilibrium, for simple one-to-one binding. “A3VP1^SspB (S. gordonii DL1 SspB, residues 386-805) (from UniProt P16952 386-805)”: the figures for the Ka (in test [1]; with iSRCR1 (human)) were 2.96e+06 M⁻¹ and 2.99e+07 M⁻¹, respectively. In the test with iSRCR1 (human), the Kd was found to be 34.1 nM.
Take “C123^SspB (S. gordonii DL1 SspB, residues 913-1406) (from UniProt P16952 913-1406)”: the Ka in test [2] came to 161000 M⁻¹; with iSRCR1 (human), 2.16e+06 M⁻¹; with iSRCR123 (human), 1.61e+06 M⁻¹. Also, the Kd with iSRCR1 (human) was 464 nM; with iSRCR123 (human) it was 621 nM.
